Where “and” joins values, the source holds several entries; their conditions need not be identical. Identical values can stand only once.

One data set concerns DHX36 (human). As to the kind of experiment: pull-down, barcode microarray. Conditions: BG4/CIRBP/DHX36: 10 mM Tris-HCl pH 7.5, 100 mM KCl (or LiCl), 10% glycerol, 0.1 ug/uL BSA, 4 C, U1A/LIN28A/EIF3: 20 mM HEPES pH 7.5, 80 mM KCl, 20 mM NaCl.
The test system of another data set is BG4 anti-G4 antibody Fab. As to the kind of experiment: pull-down, barcode microarray. Conditions: BG4/CIRBP/DHX36: 10 mM Tris-HCl pH 7.5, 100 mM KCl (or LiCl), 10% glycerol, 0.1 ug/uL BSA, 4 C, U1A/LIN28A/EIF3: 20 mM HEPES pH 7.5, 80 mM KCl, 20 mM NaCl.
The subject of another data set is CIRBP (human). The data set can be described thus: pull-down, barcode microarray. Conditions: BG4/CIRBP/DHX36: 10 mM Tris-HCl pH 7.5, 100 mM KCl (or LiCl), 10% glycerol, 0.1 ug/uL BSA, 4 C, U1A/LIN28A/EIF3: 20 mM HEPES pH 7.5, 80 mM KCl, 20 mM NaCl.
Data set [1] has as its target T1, U1A (human, UniProt P09012 1-102). The data set can be described thus: pull-down, barcode microarray; BG4/CIRBP/DHX36: 10 mM Tris-HCl pH 7.5, 100 mM KCl (or LiCl), 10% glycerol, 0.1 ug/uL BSA, 4 C; U1A/LIN28A/EIF3: 20 mM HEPES pH 7.5, 80 mM KCl, 20 mM NaCl, 10%.
For data set [2], the target named is T1, U1A. As to the kind of experiment: pull-down, barcode microarray; no significant score; BG4/CIRBP/DHX36: 10 mM Tris-HCl pH 7.5, 100 mM KCl (or LiCl), 10% glycerol, 0.1 ug/uL BSA, 4 C; U1A/LIN28A/EIF3: 20 mM HEPES pH 7.5, 80 mM KCl, 20 mM NaCl, 10%.

The molecule G4_(UGGU)6 came in with a binding signal (binding intensity) in the data set on DHX36 (human) of 18.6.
Turning to hsa-mir-4296 loop, the binding signal (binding intensity) in the data set on DHX36 (human) was 15.8.
For G4_(GGGU)8, the binding signal (binding intensity) is 18 in the data set with DHX36 (human); 2.14 and 3.92 with BG4 anti-G4 antibody Fab; 9.61 in the data set on CIRBP (human).
The molecule hsa-mir-760 loop returned a binding signal (binding intensity) in the data set with CIRBP (human) of 9.17.
hsa-mir-577 loop: the binding signal (binding intensity) with BG4 anti-G4 antibody Fab is 2.44 and 3.9.
Consider hsa-mir-6850 loop, for which the binding signal (binding intensity) with DHX36 (human) came out at 16.4; in the data set with CIRBP (human), 10.1.
For G4_(UGGU)8, the binding signal (binding intensity) in the data set on DHX36 (human) is 19; in the data set on BG4 anti-G4 antibody Fab it was 2.08 and 3.9.
As for hsa-mir-4516 loop, the binding signal (binding intensity) in the data set with CIRBP (human) stood at 10.9.
On to G4_(UGGGGU)8, for which the binding signal (binding intensity) is 17.8 in the data set with DHX36 (human); 4.29 and 2.11 in the data set on BG4 anti-G4 antibody Fab; 11.3 with CIRBP (human).
hsa-mir-5189 loop came in with a binding signal (binding intensity) in the data set on CIRBP (human) of 9.27.
With G4_(UGGGU)8, the binding signal (binding intensity) was 16.9 in the data set on DHX36 (human); 2.06 and 4.01 in the data set on BG4 anti-G4 antibody Fab; 9.24 with CIRBP (human).
Turning to hsa-mir-5583-2 loop, the binding signal (binding intensity) in the data set with BG4 anti-G4 antibody Fab is 2.26 and 3.8.
Regarding G4_(GGGUU)6, the binding signal (binding intensity) with DHX36 (human) was 17.5; with BG4 anti-G4 antibody Fab, 2.17 and 3.88; with CIRBP (human), 9.62.
As to G4_(GGGUU)8, the binding signal (binding intensity) with DHX36 (human) is 18.4; with BG4 anti-G4 antibody Fab it was 4.2 and 2.35; in the data set on CIRBP (human), 10.1.
Regarding G4_(UGGGGU)6, the binding signal (binding intensity) with DHX36 (human) is 18.3; in the data set with BG4 anti-G4 antibody Fab, 2.26 and 4.04; in the data set on CIRBP (human) it was 10.1.
On to hsa-mir-4259 loop, for which the binding signal (binding intensity) with BG4 anti-G4 antibody Fab is 3.69 and 2.06.
Regarding r(GAA)16, the binding signal (binding intensity) was 2.35 and 4.03 with BG4 anti-G4 antibody Fab; 16.3 in the data set on CIRBP (human).
In turn, G4_(GGGU)6 displayed a binding signal (binding intensity) with DHX36 (human) of 18.1.
Regarding G4_(UGGGU)6, the binding signal (binding intensity) was 16.9 with DHX36 (human) and 10.6 in the data set with CIRBP (human).
For the molecule GGUGUACGAAGUUUCAGCAUUGCACUCCGCUGAAGCUUCGUGCACC (structured_RNA) [U1A-binding aptamer], the binding result with U1A [1] is on record as “binds”.
Take GGUGUACGAAGUUUCAGCAUUACGGUCCGCUGAAGCUUCGUGCACC (structured_RNA) [U1A-binding aptamer defective mutant]: the binding result with U1A [2] is reported as “no binding”.

The values above are taken from PMC7723054.
